Experimental data from PubChem BioAssay AID504706 (National Center for Advancing Translational Sciences (NCATS), 2011).
This is a selection; strong and weak results do not stand in their true shares. Inconclusive results are not listed. Activity calls are given as the source filed them. Calls follow the shape of the dose curve; as a rule, active = well fitted activation curve with a large enough effect; inconclusive = small, poorly fitted or top-dose-only effect; inactive = no such curve, though single readings can be large or run the other way.

assay: qHTS assay for re-activators of p53 using a Luc reporter; conditions: H1299 p53-A138V BP100-luciferase reporter, luminescence, 24 h; at 92.2 µM (top of the series); also: % of control where 0% means no effect; nearly all actives have a fitted effect of over 45% in size
Text: The p53 tumor suppressor plays a key role in suppression of tumorigenesis and in human carcinogenesis. It is frequently found inactivated in human cancers, mainly by point mutation. These point mutations are found in a wide variety of human cancers and a majority of them affect the DNA binding domain of the protein. The point mutations either alter native p53 conformation or abolish DNA contact. Additionally, cancer cells with p53 mutations are more resistant to chemo-radiation therapies. In order to find activators to reactivate this important protein, a cell-based screen for p53-dependent luciferase-reporter expression was developed. A p53-null H1299 lung cancer cell line was stably co-transfected with a temperature sensitive p53 mutant, p53-A138V, and a p53-responsive BP100-luciferase reporter. This cell model has previously been characterized in a gene chip profiling experiment for p53 activation. By lowering the culture temperature from 37 deg C (mutant p53 conformation) to 32 deg C (w.t. p53 conformation), a 30-60 fold increase in activation of luciferase activity is observed. At assay temperate, 37 deg C, basal reporter expression is very low and after the addition of detection reagent, a luminescent read-out is carried out. NIH Chemical Genomics Center [NCGC] NIH Molecular Libraries Probe Production Centers Network [MLPCN] MLPCN Grant: DA031088-01A1 Assay Provider (PI): Yi Sung, University of Michigan at Ann Arbor
5ul of 1000 cells per well are dispensed in all wells except column 4, into white solid-bottom TC-treated Kalypsys plates. The cells are kept in Opti-MEM and supplemented with 10% FBS and dispensed using a Multidrop (Thermo). Then using the Kalypsys pin-tool, 23nl of compounds are pinned. The compounds are starting concentration at 10mM, with 1:5 dilution, 4 points, and the control compound nocodazole is pinned in column 1 at 25mM, 1:3 dilution, in duplicate, 25mM nocodazole is pinned in column 2. Please note, all concentrations are working concentrations. 5ul of 1pM purified luciferase enzyme is dispensed using the Kalypsys dispenser in column 4. Plates are incubated for 24 hrs at 37 deg C, 5% CO2, and 95% humidity. Then 4ul of the detection reagent Amplite (ABD Bioquest) is added using the Kalypsys dispenser. Plates are incubated for 10 min at ambient room temperature and are then read on the ViewLux (Perkin Elmer) using a clear filter for a luminescent read-out.

| Structure (SMILES) | activity change, positive = activation |
| --- | --- |
| COC(=O)c1cc2c(s1)N=C(c1ccccc1)N(C)P2(=O)N1CCOCC1 (centres undefined) | inactive: -0.0879% |
| Cc1ccc(OP(=O)(Nc2ccccn2)Oc2ccc(C)cc2)cc1 | inactive: -2.78% |
| CC(=O)NC(SC(=S)N(CC(C)C)CC(C)C)C(Cl)(Cl)Cl (centres undefined) | inactive: 1.87% |
| O=C(OC1CN2CCC1CC2)c1ccccc1 (centres undefined) | inactive: -4.51% |
| CCC(=O)N1C2C3N(C(=O)CC)C1C1N(C(=O)CC)C(C(N1C(=O)CC)N3C(=O)CC)N2C(=O)CC | inactive: 2.17% |
| CC(NC(=O)COC(=O)C(O)(c1ccccc1)c1ccccc1)c1ccccc1 (centres undefined) | inactive: -3.31% |
| Cc1ccccc1OP(=O)(Nc1ccccn1)Oc1ccccc1C | inactive: -3.79% |
| O=c1c2cc([N+](=O)[O-])ccc2[nH]c2c([N+](=O)[O-])cc([N+](=O)[O-])cc12 | inactive: 7.67% |
| CN(C)C(=O)Oc1noc2ccccc12 | inactive: 2.73% |
| CCNC(=S)/N=C(\N)N[N+](=O)[O-] | inactive: 9.74% |
| O=C(NC1CCS(=O)(=O)C1)NP(=S)(Oc1ccccc1)Oc1ccccc1 (centres undefined) | inactive: -2.42% |
| c1ccc(-c2nn[nH]n2)c(-c2nn[nH]n2)c1 | inactive: -2.35% |
| CCOC(=O)NC(Sc1ccccc1)C(Cl)(Cl)Cl (centres undefined) | inactive: 4.05% |
| Cc1ccc(NP(=O)(Oc2cccc(C)c2)Oc2cccc(C)c2)nc1 | inactive: 0.668% |
| CC(=O)c1ccc(N2CC2c2ccncc2)cc1 (centres undefined) | inactive: 3.2% |
| Cc1ccccc1CN(C)C(=O)COC(=O)C(O)(c1ccccc1)c1ccccc1 | inactive: -3.64% |
| C[C@H]1OP(=O)(Oc2ccccc2)C[C@@H]2O[C@@H]21 (some centres undefined) | inactive: 0.28% |
| C[C@@H]1C=CCP(=O)(Oc2ccccc2)O1 (some centres undefined) | inactive: 3.3% |
| CC(=O)Nc1ccc([As](=O)(O)O)c(O)c1 | inactive: -1.51% |
| CC(=O)Nc1ccc(Oc2c([N+](=O)[O-])cc([N+](=O)[O-])cc2[N+](=O)[O-])cc1 | inactive: -4.25% |
| O=P1(Nc2nc3ccc(Cl)cc3s2)COc2ccccc2O1 (centres undefined) | inactive: 3.43% |
| CCOc1ccc(C2=NCC(CBr)S2)cc1 (centres undefined) | inactive: 4.79% |
| CC(C)(C)C(=O)NC(Sc1ccccc1)C(Cl)(Cl)Cl (centres undefined) | inactive: -3.26% |
| CC(C)C(=O)NC(Sc1ccccc1)C(Cl)(Cl)Cl (centres undefined) | inactive: -4.91% |
| O=P(Nc1nccs1)(c1ccccc1)c1ccccc1 | inactive: 0.097% |

| Structure (SMILES) | activity change, positive = activation |
| --- | --- |
| c1nnnn1CCn1cnnn1 | inactive: -6.63% |
| O=[N+]([O-])c1ccc(O)c(/C=N/Nc2ccc([N+](=O)[O-])cc2[N+](=O)[O-])c1 | inactive: 1.36% |
| O=[N+]([O-])c1ncn(CCn2cnc([N+](=O)[O-])n2)n1 | inactive: 2.83% |
| CC(=O)NC(SC(=S)N(C)C)C(Cl)(Cl)Cl (centres undefined) | inactive: 17.9% |
| O=[As](O)(c1ccccc1)c1ccc(O)cc1 | inactive: 2.66% |
| C(Cc1nn[nH]n1)Cc1nn[nH]n1 | inactive: 23.5% |
| Nc1ccc([As](=O)(O)c2ccc([N+](=O)[O-])cc2)cc1 | inactive: 0.137% |
| O=C(OC1CN2CCC1CC2)c1cccc(Cl)c1 (centres undefined) | inactive: -0.871% |
| O=P(Nc1ccccn1)(c1ccc(Br)cc1)c1ccc(Br)cc1 | inactive: -2.8% |
| CN(C)C1(CNC(=O)c2ccc(Cl)c(S(N)(=O)=O)c2)CCCCC1 | inactive: 4.08% |
| O=P(Nc1nc2ccccc2s1)(c1ccccc1)c1ccccc1 | inactive: 0.338% |
| C[C@H]1OP(=O)(Oc2ccccc2)[C@H](O)[C@H](O)[C@H]1N=[N+]=[N-] (some centres undefined) | inactive: -0.296% |
| CC(C)(C)C(=O)NC(Sc1ccncn1)C(Cl)(Cl)Cl (centres undefined) | inactive: -1.38% |
| O=[N+]([O-])c1ncn(CCn2ncnc2[N+](=O)[O-])n1 | inactive: -7.63% |
| O=[N+]([O-])c1cccc(NC2=NCC(CBr)S2)c1 (centres undefined) | inactive: 2.62% |
| O=C(O)CNc1ccc([As](=O)(O)O)cc1 | inactive: -4.92% |
| O=C(Nc1cc([As](=O)(O)O)ccc1O)c1ccccc1 | inactive: -4.36% |
| Nc1ccc([As](=O)(O)c2ccc(N)cc2)cc1 | inactive: 3.14% |
| C[N+]1=C2C=CC=CC=C2SC12C([N+](=O)[O-])=CC([N+](=O)[O-])=C[C-]2[N+](=O)[O-] (centres undefined) | inactive: -16% |
| CCN(/C(=N/P(=O)(N1CCOCC1)N1CCOCC1)N1CCOCC1)c1ccc(OC)cc1 | inactive: 2.31% |
| CC(C)=N/N=C(\N)N[N+](=O)[O-] | inactive: -4.52% |
| CN(C)C(=O)OCCc1n(C)cc[n+]1C | inactive: -1.86% |
| CC1CCN(C(=O)Oc2c(Cl)cc(Cl)c3cccnc23)CC1 | inactive: -4.29% |
| COc1ccc(C2=NCC(CBr)S2)cc1 (centres undefined) | inactive: 11.5% |
